In PMC10184130:
Like-named read-outs stand apart in the source and are kept apart here. Values belong to the molecule of their own block, whether it stands above or below them.

Assays:
human C1s = target: T1, human C1s (Homo sapiens, UniProt P09871); experiment: Human C1s enzyme assay; format: biochemical
T1 construct: Recombinant human C1s (358–688 aa) fused with both the N-terminal IgG signal peptide; IgG signal peptide (N); His tag (C); made in house; host or cells: HEK293 cells
T1 sequence (P09871 358-688): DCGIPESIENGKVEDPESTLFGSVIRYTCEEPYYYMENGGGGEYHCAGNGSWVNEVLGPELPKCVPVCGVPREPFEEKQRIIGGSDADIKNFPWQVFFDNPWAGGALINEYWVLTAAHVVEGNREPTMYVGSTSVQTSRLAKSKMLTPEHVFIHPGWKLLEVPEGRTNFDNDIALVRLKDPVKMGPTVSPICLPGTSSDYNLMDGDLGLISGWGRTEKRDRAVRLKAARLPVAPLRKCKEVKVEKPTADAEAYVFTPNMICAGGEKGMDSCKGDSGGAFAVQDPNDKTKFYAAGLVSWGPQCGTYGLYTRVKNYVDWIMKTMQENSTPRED
Procedure: Recombinant human C1s (358–688 aa) fused with both the N-terminal IgG signal peptide and the C-terminal His tag was expressed in HEK293 cells and purified. The assay was performed in a 384-well clear plate in a total volume of 20 μL of an assay buffer 1 [50 mmol/L Tris–HCl (pH 7.5), 150 mmol/L NaCl, 0.01% (w/v) Tween 20, and 0.01% (w/v) BSA]. Compounds were dissolved in DMSO and diluted to various concentrations. After 20 nL of compound solution was added to the plate, 10 μL of substrate solution containing a 250 μmol/L Z-Lys-SBzl peptide (Watanabe Chemical, Hiroshima, Japan) and 250 μmol/L DTNB (5,5′-dithiobis(2-nitrobenzoic acid)) (Sigma, MO, USA) was added to the plate. Then, 8 nmol/L human C1s was added to the plate and incubated at room temperature for 60 min. The absorbance at 405 nm was detected using an EnVision multilabel plate reader. […] The IC50 values were calculated using IDBS XLfit software.

[1] = Pharmacokinetics analysis in mice (oral; plasma and brain); format: in vivo; settings: plasma
Procedure: Male C57BL/6J mice were purchased from The Jackson Laboratory Japan, Inc. (Kanagawa, Japan). All animals were with free access to food and water prior to the treatment and were healthy throughout the experimental period. The compound was dissolved in 10% DMSO/10% Cremophor EL/20% PEG400/60% 0.1 mol/L citric acid solution and administered orally at doses of 10, 30, or 100 mg/kg. Blood samples were collected into heparinized tubes at the designated time points (0.5, 1, 2, 4, 8, and 24 h postdosing), and brains were also collected at 2 and 24 h postdosing. Plasma was separated from the blood samples by centrifugation. The plasma and brain concentrations were quantified with high-performance liquid chromatography–tandem mass spectrometry. The lower limit of quantitation was 1 ng/mL for plasma and 5 ng/mL for brains.

- inhibition at 30 µM (human C1s; read-out: human C1s % inhibition at 30 uM, at 30 uM, supplementary csv): 44%
Structure (SMILES): O=C(c1cccc(Br)c1)N1CCN(c2ccc3cnccc3c2)CC1 [Compound 3]

- Tmax ([1]; 10 mg/kg): 1.67 ± 0.58 h
- Tmax ([1]; 30 mg/kg): 2.67 ± 1.15 h
- Tmax ([1]; 100 mg/kg): 4.00 ± 0.00 h
Structure (SMILES): Cc1cc([C@H]2CN(c3cc(F)c4c(N)nncc4c3)CCN2c2cccc(F)c2)no1 [Compound (R)-8, 8-Fluoro-6-[(3R)-4-(3-fluorophenyl)-3-(5-methyl-1,2-oxazol-3-yl)piperazin-1-yl]phthalazin-1-amine]

- inhibition at 30 µM (human C1s; read-out: human C1s % inhibition at 30 μM): 49%
Structure (SMILES): Cc1ccc(C(=O)N2CCN(c3ccc4cnccc4c3)CC2)cc1 [Compound 4a, [4-(Isoquinolin-6-yl)piperazin-1-yl](4-methylphenyl)methanone]
